Experimental data as given in US20190177376A1 (NAVIGO PROTEINS, published 2019).

How the values were obtained:
[1] = molecular target: T1, human IgG (human); experiment: ELISA, IgG coated on plate, detection with Strep-Tactin-HRP
T1 construct: also called probably human IgG1, e.g. Cetuximab

[2] = molecular target: T2, IgG1 (column of Table 2: human IgG1-Fc or Cetuximab) (human); experiment: SPR, Biacore 3000, CM5 chip, 25 C, Langmuir 1:1
T2 construct: It cannot be told whether the IgG1 column was measured with human IgG1-Fc or with Cetuximab; also called Cetuximab (IgG1)

Row | Binder | Kd [1] | Kd [2]
1 | IB14 (SEQ ID NO: 14) (designed binder, also called parental IB14) PAAKHDKDQQSAFYEILHLPNLTEDQRSAFIQSLKDDPSVSKEILGEAKKLNDAQAPPWSHPQFEK | 4.9 nM | –
2 | cs14 (SEQ ID NO: 20) (designed binder, also called cs14-3; 1I/11A/28N/35R/42L) IAAKHDKDQQAAFYEILHLPNLTEDQRNAFIQSLRDDPSVSLEILGEAKKLNDAQAPPWSHPQFEK | – | 2.9 nM
3 | cs27 (SEQ ID NO: 30) (designed binder, also called cs27-2; 1I/11A/35R/42L) IAAKFDEAQQAAFYEILHLPNLTEEQRNAFIQSLRDDPSVSLEVLGEAQKLNDSQAPKWSHPQFEK | – | 3.64 nM
